Test results published in patent publication US20170106017A1 (priority 2014, published 2017).
Read-outs that look alike come from different tables or passages of the source.

Key:
[1] = tested on: ALS patients
[2] = tested on: ALS patients; remark: listed apart in the source
[3] = single iv dose 0.2 mg/kg (N = 6)
[4] = single iv dose 0.8 mg/kg (N = 6)
[5] = single iv dose 1.6 mg/kg (N = 6)
[6] = single iv dose 3.2 mg/kg (N = 6)

sodium chlorite [NP001]
TEAE Anxiety, patients % ([1]; 1 mg/kg (N = 49)): (6.1) %
TEAE Anxiety, patients n ([1]; 1 mg/kg (N = 49)): 3
TEAE Back pain, patients % ([1]; 1 mg/kg (N = 49)): (2.0) %
TEAE Back pain, patients n ([1]; 1 mg/kg (N = 49)): 1
TEAE Constipation, patients % ([1]; 1 mg/kg (N = 49)): (10.2) %
TEAE Constipation, patients n ([1]; 1 mg/kg (N = 49)): 5
TEAE Contusion, patients % ([1]; 1 mg/kg (N = 49)): (6.1) %
TEAE Contusion, patients n ([1]; 1 mg/kg (N = 49)): 3
TEAE Cough, patients % ([1]; 1 mg/kg (N = 49)): (14.3) %
TEAE Cough, patients n ([1]; 1 mg/kg (N = 49)): 7
TEAE Diarrhea, patients % ([1]; 1 mg/kg (N = 49)): (10.2) %
TEAE Diarrhea, patients n ([1]; 1 mg/kg (N = 49)): 5
TEAE Dizziness, patients % ([1]; 1 mg/kg (N = 49)): (8.2) %
TEAE Dizziness, patients n ([1]; 1 mg/kg (N = 49)): 4
TEAE Dysphagia, patients % ([1]; 1 mg/kg (N = 49)): (4.1) %
TEAE Dysphagia, patients n ([1]; 1 mg/kg (N = 49)): 2
TEAE Edema peripheral, patients % ([1]; 1 mg/kg (N = 49)): (6.1) %
TEAE Edema peripheral, patients n ([1]; 1 mg/kg (N = 49)): 3
TEAE Fall, patients % ([1]; 1 mg/kg (N = 49)): (32.7) %
TEAE Fall, patients n ([1]; 1 mg/kg (N = 49)): 16
TEAE Fatigue, patients % ([1]; 1 mg/kg (N = 49)): (16.3) %
TEAE Fatigue, patients n ([1]; 1 mg/kg (N = 49)): 8
TEAE Headache, patients % ([1]; 1 mg/kg (N = 49)): (22.4) %
TEAE Headache, patients n ([1]; 1 mg/kg (N = 49)): 11
TEAE Infusion site erythema, patients % ([1]; 1 mg/kg (N = 49)): (12.2) %
TEAE Infusion site erythema, patients n ([1]; 1 mg/kg (N = 49)): 6
TEAE Infusion site extravasation, patients % ([1]; 1 mg/kg (N = 49)): (18.4) %
TEAE Infusion site extravasation, patients n ([1]; 1 mg/kg (N = 49)): 9
TEAE Infusion site pain, patients % ([1]; 1 mg/kg (N = 49)): (18.4) %
TEAE Infusion site pain, patients n ([1]; 1 mg/kg (N = 49)): 9
TEAE Infusion site swelling, patients % ([1]; 1 mg/kg (N = 49)): (4.1) %
TEAE Infusion site swelling, patients n ([1]; 1 mg/kg (N = 49)): 2
TEAE Muscle contractions involuntary, patients % ([1]; 1 mg/kg (N = 49)): (6.1) %
TEAE Muscle contractions involuntary, patients n ([1]; 1 mg/kg (N = 49)): 3
TEAE Muscle spasms, patients % ([1]; 1 mg/kg (N = 49)): (10.2) %
TEAE Muscle spasms, patients n ([1]; 1 mg/kg (N = 49)): 5
TEAE Muscular weakness, patients % ([1]; 1 mg/kg (N = 49)): (2.0) %
TEAE Muscular weakness, patients n ([1]; 1 mg/kg (N = 49)): 1
TEAE Nasal congestion, patients % ([1]; 1 mg/kg (N = 49)): (4.1) %
TEAE Nasal congestion, patients n ([1]; 1 mg/kg (N = 49)): 2
TEAE Nasopharyngitis, patients % ([1]; 1 mg/kg (N = 49)): (12.2) %
TEAE Nasopharyngitis, patients n ([1]; 1 mg/kg (N = 49)): 6
TEAE Nausea, patients % ([1]; 1 mg/kg (N = 49)): (12.2) %
TEAE Nausea, patients n ([1]; 1 mg/kg (N = 49)): 6
TEAE Pain in extremity, patients % ([1]; 1 mg/kg (N = 49)): (6.1) %
TEAE Pain in extremity, patients n ([1]; 1 mg/kg (N = 49)): 3
TEAE Rash, patients % ([1]; 1 mg/kg (N = 49)): (8.2) %
TEAE Rash, patients n ([1]; 1 mg/kg (N = 49)): 4
mean changes from baseline in vital signs or ECG parameters between treatment groups ([1]; 1 mg/kg and 2 mg/kg vs placebo): No clinically relevant mean changes
TEAE Anxiety, patients % ([1]; 2 mg/kg (N = 45)): (4.4) %
TEAE Anxiety, patients n ([1]; 2 mg/kg (N = 45)): 2
TEAE Back pain, patients % ([1]; 2 mg/kg (N = 45)): (11.1) %
TEAE Back pain, patients n ([1]; 2 mg/kg (N = 45)): 5
TEAE Constipation, patients % ([1]; 2 mg/kg (N = 45)): (8.9) %
TEAE Constipation, patients n ([1]; 2 mg/kg (N = 45)): 4
TEAE Contusion, patients % ([1]; 2 mg/kg (N = 45)): (6.7) %
TEAE Contusion, patients n ([1]; 2 mg/kg (N = 45)): 3
TEAE Cough, patients % ([1]; 2 mg/kg (N = 45)): (15.6) %
TEAE Cough, patients n ([1]; 2 mg/kg (N = 45)): 7
TEAE Diarrhea, patients % ([1]; 2 mg/kg (N = 45)): (8.9) %
TEAE Diarrhea, patients n ([1]; 2 mg/kg (N = 45)): 4
TEAE Dizziness, patients % ([1]; 2 mg/kg (N = 45)): (20.0) %
TEAE Dizziness, patients n ([1]; 2 mg/kg (N = 45)): 9
TEAE Dysphagia, patients % ([1]; 2 mg/kg (N = 45)): (8.9) %
TEAE Dysphagia, patients n ([1]; 2 mg/kg (N = 45)): 4
TEAE Edema peripheral, patients % ([1]; 2 mg/kg (N = 45)): (6.7) %
TEAE Edema peripheral, patients n ([1]; 2 mg/kg (N = 45)): 3
TEAE Fall, patients % ([1]; 2 mg/kg (N = 45)): (37.8) %
TEAE Fall, patients n ([1]; 2 mg/kg (N = 45)): 17
TEAE Fatigue, patients % ([1]; 2 mg/kg (N = 45)): (35.6) %
TEAE Fatigue, patients n ([1]; 2 mg/kg (N = 45)): 16
TEAE Headache, patients % ([1]; 2 mg/kg (N = 45)): (20.0) %
TEAE Headache, patients n ([1]; 2 mg/kg (N = 45)): 9
TEAE Infusion site erythema, patients % ([1]; 2 mg/kg (N = 45)): (13.3) %
TEAE Infusion site erythema, patients n ([1]; 2 mg/kg (N = 45)): 6
TEAE Infusion site extravasation, patients % ([1]; 2 mg/kg (N = 45)): (22.2) %
TEAE Infusion site extravasation, patients n ([1]; 2 mg/kg (N = 45)): 10
TEAE Infusion site pain, patients % ([1]; 2 mg/kg (N = 45)): (33.3) %
TEAE Infusion site pain, patients n ([1]; 2 mg/kg (N = 45)): 15
TEAE Infusion site swelling, patients % ([1]; 2 mg/kg (N = 45)): (4.4) %
TEAE Infusion site swelling, patients n ([1]; 2 mg/kg (N = 45)): 2
TEAE Muscle contractions involuntary, patients % ([1]; 2 mg/kg (N = 45)): (13.3) %
TEAE Muscle contractions involuntary, patients n ([1]; 2 mg/kg (N = 45)): 6
TEAE Muscle spasms, patients % ([1]; 2 mg/kg (N = 45)): (4.4) %
TEAE Muscle spasms, patients n ([1]; 2 mg/kg (N = 45)): 2
TEAE Muscular weakness, patients % ([1]; 2 mg/kg (N = 45)): (11.1) %
TEAE Muscular weakness, patients n ([1]; 2 mg/kg (N = 45)): 5
TEAE Nasal congestion, patients % ([1]; 2 mg/kg (N = 45)): (4.4) %
TEAE Nasal congestion, patients n ([1]; 2 mg/kg (N = 45)): 2
TEAE Nasopharyngitis, patients % ([1]; 2 mg/kg (N = 45)): (13.3) %
TEAE Nasopharyngitis, patients n ([1]; 2 mg/kg (N = 45)): 6
TEAE Nausea, patients % ([1]; 2 mg/kg (N = 45)): (15.6) %
TEAE Nausea, patients n ([1]; 2 mg/kg (N = 45)): 7
TEAE Pain in extremity, patients % ([1]; 2 mg/kg (N = 45)): (6.7) %
TEAE Pain in extremity, patients n ([1]; 2 mg/kg (N = 45)): 3
TEAE Rash, patients % ([1]; 2 mg/kg (N = 45)): (8.9) %
TEAE Rash, patients n ([1]; 2 mg/kg (N = 45)): 4
Subjects with a TEAE that Occurred in ≧2 Subjects in the All NP001 Doses or Placebo Groups ([2]; All NP001 Doses (N = 24)): 7
TEAE Contusion, subjects ([2]; All NP001 Doses (N = 24)): 2
TEAE Facial pain, subjects ([2]; All NP001 Doses (N = 24)): 2
TEAE Fall, subjects ([2]; All NP001 Doses (N = 24)): 4
TEAE Fatigue, subjects ([2]; All NP001 Doses (N = 24)): 2
Subjects with a TEAE that Occurred in ≧2 Subjects in the All NP001 Doses or Placebo Groups [2, 3]: 2
TEAE Contusion, subjects [2, 3]: 1
TEAE Facial pain, subjects [2, 3]: 1
TEAE Fall, subjects [2, 3]: 1
TEAE Fatigue, subjects [2, 3]: 1
Subjects with a TEAE that Occurred in ≧2 Subjects in the All NP001 Doses or Placebo Groups [2, 4]: 1
TEAE Contusion, subjects [2, 4]: 0
TEAE Facial pain, subjects [2, 4]: 0
TEAE Fall, subjects [2, 4]: 1
TEAE Fatigue, subjects [2, 4]: 0
Subjects with a TEAE that Occurred in ≧2 Subjects in the All NP001 Doses or Placebo Groups [2, 5]: 2
TEAE Contusion, subjects [2, 5]: 1
TEAE Facial pain, subjects [2, 5]: 0
TEAE Fall, subjects [2, 5]: 0
TEAE Fatigue, subjects [2, 5]: 1
Subjects with a TEAE that Occurred in ≧2 Subjects in the All NP001 Doses or Placebo Groups [2, 6]: 2
TEAE Contusion, subjects [2, 6]: 0
TEAE Facial pain, subjects [2, 6]: 1
TEAE Fall, subjects [2, 6]: 2
TEAE Fatigue, subjects [2, 6]: 0
